Values after ≈ are worked out from the molar mass of the structure shown. Like-named read-outs stand apart in the source and are kept apart here.
Assays:
C. albicans SC5314 [1] = format: cell-based
Experimental: 1×RPMI-1640 Buffered with Citrate Phosphate Buffer
Citrate phosphate buffer was prepared by mixing 0.1 M citric acid and 0.2 M dibasic sodium phosphate dodecahydrate in the proportions indicated in the Table 2 and the volume adjusted to 90 ml with dH2O.
pH buffered medium was prepared by dissolving 1.04 g RPMI-1640 premix powder in 10 ml citrate phosphate buffer. The volume was then adjusted to 40 ml with dH2O and the pH adjusted by addition of the acid or base. The volume was adjusted to 50 ml with dH2O. The medium was then filter sterilized by vacuum filtration through a 0.2 μm filter and stored at 4° C. and kept for up to 2 weeks.
The pH of RPMI-1640 was altered, using citrate phosphate buffer, to reflect the more acidic pH environment in the oral cavity. NP319 and NP377 were active against C. albicans SC5314 from pH 5.5-7.0 (Table 2). For all AMPs tested the optimum pH for activity was pH 5.5. NP377 maintained activity at 2 μg/ml from pH 5.5-7 with reduced activity at pH 5.

C. albicans SC5314 [2] = assay: MIC in the presence of 10% sterile filtered human saliva; format: cell-based
Experimental: AMPs of the same sequence length were tested versus C. albicans SC5314 in the presence of 10% (v/v) filtered human saliva at pH 7.0. Positive control is 1×RPMI-1640+cells, no peptide. Data is expressed as percentage of the positive growth controls. Data is the mean±standard error of the mean. (n=3)
Determination of Minimum Inhibitory Concentration (MIC) in Presence of Sterile Filtered Saliva
To test if saliva protease could result in a reduction in AMP antifungal activity against C. albicans, antifungal susceptibility testing was conducted in the presence of 10% (v/v) sterile filtered human saliva.

C. albicans SC5314 [3] = conditions: neutral pH
[4] = 10% (v/v) sterile filtered human saliva, pH 7.0

Row | MIC50 (C. albicans SC5314 [1]; SC5314, pH 4.5) | MIC50 (C. albicans SC5314 [1]; SC5314, pH 5) | MIC50 (C. albicans SC5314 [1]; SC5314, pH 5.5) | MIC50 (C. albicans SC5314 [1]; SC5314, pH 6) | MIC50 (C. albicans SC5314 [1]; SC5314, pH 6.5) | MIC50 (C. albicans SC5314 [1]; SC5314, pH 7) | MIC100 (C. albicans SC5314 [1]; pH 4.5) | MIC100 (C. albicans SC5314 [1]; pH 5) | MIC100 (C. albicans SC5314 [1]; pH 5.5) | MIC100 (C. albicans SC5314 [1]; pH 6) | MIC100 (C. albicans SC5314 [1]; pH 6.5) | MIC100 (C. albicans SC5314 [1]; pH 7) | MIC50 (C. albicans SC5314 [2]; [4]) | MIC100 (C. albicans SC5314 [2]; [4]) | MIC100 (C. albicans SC5314 [3]; no saliva, 24 h incubation at 37° C.) | Compound | pH range with activity against C. albicans SC5314 (C. albicans SC5314 [1]) | nature of growth inhibition by MFC testing (C. albicans SC5314 [1]; pH 5.5-6.0) | inhibition of C. albicans SC5314 growth (C. albicans SC5314 [3]) | antifungal activity in the presence of filtered human saliva (C. albicans SC5314 [2]; filtered human saliva)
1 | >64 µg/mL | 64 µg/mL (≈ 30.8 µM) | 8 µg/mL (≈ 3.86 µM) | 32 µg/mL (≈ 15.4 µM) | 32 µg/mL (≈ 15.4 µM) | >64 µg/mL | >64 µg/mL | >64 µg/mL | 64 µg/mL (≈ 30.8 µM) | >64 µg/mL | >64 µg/mL | >64 µg/mL | failed to demonstrate a MIC50 | – | – | N[C@H](Cc1c[nH]cn1)C(=O)N[C@H](Cc1c[nH]cn1)C(=O)N[C@H](Cc1c[nH]cn1)C(=O)N[C@H](Cc1c[nH]cn1)C(=O)N[C@H](Cc1c[nH]cn1)C(=O)N[C@H](Cc1c[nH]cn1)C(=O)N[C@H](Cc1c[nH]cn1)C(=O)N[C@H](Cc1c[nH]cn1)C(=O)N[C@H](Cc1c[nH]cn1)C(=O)N[C@H](Cc1c[nH]cn1)C(=O)N[C@H](Cc1c[nH]cn1)C(=O)N[C@H](Cc1c[nH]cn1)C(=O)N[C@H](Cc1c[nH]cn1)C(=O)N[C@H](Cc1c[nH]cn1)C(=O)N[C@H](Cc1c[nH]cn1)C(=O)O [NP365, dHdHdHdHdHdHdHdHdHdHdHdHdHdHdH] | 5.5-6.0 | fungistatic and not fungicidal | did not inhibit | –
2 | 64 µg/mL (≈ 27.1 µM) | 8 µg/mL (≈ 3.39 µM) | 2 µg/mL (≈ 0.847 µM) | 2 µg/mL (≈ 0.847 µM) | 2 µg/mL (≈ 0.847 µM) | 4 µg/mL (≈ 1.69 µM) | >64 µg/mL | 32 µg/mL (≈ 13.6 µM) | 4 µg/mL (≈ 1.69 µM) | 4 µg/mL (≈ 1.69 µM) | 2 µg/mL (≈ 0.847 µM) | 8 µg/mL (≈ 3.39 µM) | 8 to 16 µg/mL | 32 µg/mL | 32 µg/mL (≈ 13.6 µM) | N=C(N)NCCC[C@H](NC(=O)[C@H](CCCNC(=N)N)NC(=O)[C@H](CCCNC(=N)N)NC(=O)[C@H](CCCNC(=N)N)NC(=O)[C@H](CCCNC(=N)N)NC(=O)[C@H](CCCNC(=N)N)NC(=O)[C@H](CCCNC(=N)N)NC(=O)[C@H](CCCNC(=N)N)NC(=O)[C@H](CCCNC(=N)N)NC(=O)[C@H](CCCNC(=N)N)NC(=O)[C@H](CCCNC(=N)N)NC(=O)[C@H](CCCNC(=N)N)NC(=O)[C@H](CCCNC(=N)N)NC(=O)[C@H](CCCNC(=N)N)NC(=O)[C@@H](N)CCCNC(=N)N)C(=O)O [NP319] | – | – | – | retain antifungal activity

Reference: patent US20170107254A1, “Modified Antimicrobial Peptides” (priority 2014, published 2017)
